Experimental data from paper PMC10528180, “Inhibitory Mechanism of Quercimeritrin as a Novel α-Glucosidase Selective Inhibitor” (Foods, 2023).

By UniProt entry, the sequences of proteins in these tests, tags left out. Where a name states a change or a piece, a line headed by the entry shows the natural chain unless it says otherwise.
UniProt P53341: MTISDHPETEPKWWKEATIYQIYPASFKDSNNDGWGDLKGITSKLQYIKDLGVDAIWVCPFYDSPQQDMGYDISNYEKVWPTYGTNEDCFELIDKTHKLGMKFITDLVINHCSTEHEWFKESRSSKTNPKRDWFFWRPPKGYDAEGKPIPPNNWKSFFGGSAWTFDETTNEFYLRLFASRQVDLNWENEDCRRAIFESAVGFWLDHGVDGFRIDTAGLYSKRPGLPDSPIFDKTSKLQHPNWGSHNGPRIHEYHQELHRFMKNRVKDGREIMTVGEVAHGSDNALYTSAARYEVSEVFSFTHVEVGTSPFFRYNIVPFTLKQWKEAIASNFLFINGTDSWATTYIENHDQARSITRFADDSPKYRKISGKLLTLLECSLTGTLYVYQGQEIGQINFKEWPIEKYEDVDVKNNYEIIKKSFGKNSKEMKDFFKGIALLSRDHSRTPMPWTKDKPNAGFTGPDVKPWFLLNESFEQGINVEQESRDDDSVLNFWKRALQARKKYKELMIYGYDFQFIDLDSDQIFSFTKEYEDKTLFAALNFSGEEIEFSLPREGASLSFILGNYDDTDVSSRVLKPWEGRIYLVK

Target: T1, α-glucosidase (Saccharomyces cerevisiae, UniProt P53341)
T1 construct: purchased Sigma-Aldrich Co
Type: biochemical
Settings: inhibition at 500 µM of both enzymes compared
Protocol: The other reagents used in this experiment are analytically pure reagents purchased from Sigma-Aldrich Co. (St. Louis, MI, USA) unless specified otherwise.
The in vitro α-glucosidase activity assay was determined using spectrophotometry, as previously reported, with only minor modifications. In phosphate buffer with a pH of 6.8, 0.5 U/mL of α-glucosidase and the appropriate quantity of p-nitrophenyl-D-glucopyranoside (pNGP) were produced. […] Gradient dilution with a phosphate-buffered solution was used to create sample solutions of various concentrations. First, different concentrations of compound (10 μL), an enzyme solution (40 μL), and potassium phosphate buffer (100 μL) were pre-incubated in 96-well plates at 37 °C for 10 min.
The enzymatic inhibitory activity of the tested compounds was calculated using the following formula: Inhibition %=[(Abs control−Abs sample)/Abs control]×100
The IC50 values of the tested compounds were calculated using nonlinear fitting (logit method).

With `O=c1c(O)c(-c2ccc(O)c(O)c2)oc2cc(O[C@@H]3O[C@H](CO)[C@@H](O)[C@H](O)[C@H]3O)cc(O)c12` [Quercimeritrin] the “selectivity for glucosidase over α-amylase among the 12 compounds” value was “selective inhibition of glucosidase”.
